# Binding of CDR-mutated scFvs to a peptide of the spike HR2 region

All variants were tested on one target, the spike HR2 peptide PDVDLGDISGINAS (SARS-CoV-2).

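The library (AAYL49) carries one to three amino acid substitutions per variant, with no insertions or deletions. In AlphaSeq, yeast of one mating type display the scFv and yeast of the other type display the target. Binding brings cells together so that they mate, and sequencing counts the barcode pairs among the diploids. Scores were corrected for input abundance and mapped to Kd with protein pairs of known affinity run in the same pool. The assay was run in three technical replicates.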

Ab-14 is the parent antibody, in scFv form: VH, then a 15-residue (Gly4Ser)3 linker, then VL. The light chain is unchanged in all variants.
VH: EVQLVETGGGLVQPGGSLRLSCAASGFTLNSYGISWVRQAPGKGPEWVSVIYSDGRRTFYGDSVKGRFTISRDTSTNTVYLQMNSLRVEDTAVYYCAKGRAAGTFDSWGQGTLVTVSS
VL: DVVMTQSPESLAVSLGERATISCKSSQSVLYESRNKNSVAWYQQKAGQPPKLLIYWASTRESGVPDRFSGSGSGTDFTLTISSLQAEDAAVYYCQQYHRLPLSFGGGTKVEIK

Positions count from residue 1 of the parent VH; G33A puts A in place of G.
All variants listed here change G33 of the VH, counted from its first residue.
Kd is apparent (estimated from mating counts) and averaged on the log scale over replicates with a signal. Smaller is tighter.
Where no diploid with the target was found in any replicate, the entry reads "no signal": below detection, most likely a poor binder, though not proof of it.
For reference, the parent read 4.4 nM as the reference entry and 13 µM (one replicate of three) as a member of this library.

For G33A+R56T, the assay gave 65 µM (1 of 3 replicates; controls 4 of 9).
For G26H+G33I+G55C, the assay gave 3.2 mM (1 of 3 replicates; controls 5 of 9).
For G33N+S35P+R100S, the assay gave 1.4 mM (1 of 3 replicates; controls 4 of 9).
For S31W+Y32S+G33V, the assay gave 9.3 µM (1 of 3 replicates; controls 3 of 9).
For N30Y+G33A+V64G, the assay gave no signal (0 of 3 replicates; controls 2 of 9).
For G33T+I34H, the assay gave 4.9 µM (1 of 3 replicates; controls 0 of 9).
For G33Q+D54V+R56G, the assay gave no signal (0 of 3 replicates; controls 0 of 9).
For N30M+G33S+Y52K, the assay gave 460 µM (1 of 3 replicates; controls 2 of 9).
For G33E+I34A, the assay gave no signal (0 of 3 replicates; controls 1 of 9).
For G33F+G99I+A102G, the assay gave 4.8 µM (1 of 3 replicates; controls 1 of 9).
For G33S+F105D, the assay gave no signal (0 of 3 replicates; controls 0 of 9).
For G33N+R100V+A101T, the assay gave 8.2 µM (2 of 3 replicates; controls 5 of 9).
For G33H+V64F+G99E, the assay gave 2.0 µM (2 of 3 replicates; controls 1 of 9).
For G33T+S35L+A101S, the assay gave no signal (0 of 3 replicates; controls 3 of 9).
For G33S+I51T+S53W, the assay gave 3.4 µM (2 of 3 replicates; controls 3 of 9).
For Y32Q+G33N+Y60P, the assay gave no signal (0 of 3 replicates; controls 1 of 9).
For G33C+F59W+A102S, the assay gave no signal (0 of 3 replicates; controls 0 of 9).
For G33W+D54V+T104A, the assay gave 290 µM (1 of 3 replicates; controls 3 of 9).
For G33E+F59G+A101D, the assay gave 87 µM (2 of 3 replicates; controls 3 of 9).
For G33R+I34K+Y52L, the assay gave 39 µM (2 of 3 replicates; controls 2 of 9).
For G33K+Y52C+T104R, the assay gave 16 µM (1 of 3 replicates; controls 1 of 9).
For G33H+V50M+G55E, the assay gave no signal (0 of 3 replicates; controls 0 of 9).
For G33S+I51K+T104K, the assay gave 920 nM (1 of 3 replicates; controls 1 of 9).
For G33T+Y52L+G61L, the assay gave no signal (0 of 3 replicates; controls 1 of 9).
For G33L+F59M+K65Y, the assay gave 4.9 µM (1 of 3 replicates; controls 0 of 9).
For G33F+A101P, the assay gave no signal (0 of 3 replicates; controls 0 of 9).
For G33L+D54P+F59N, the assay gave no signal (0 of 3 replicates; controls 3 of 9).
For G33N+V50S+F105Q, the assay gave 22 µM (1 of 3 replicates; controls 0 of 9).
For T28I+G33E+G55N, the assay gave no signal (0 of 3 replicates; controls 3 of 9).
For G33Y+I51D+G99S, the assay gave 26 µM (2 of 3 replicates; controls 1 of 9).
For G33S+S53M+F59R, the assay gave 1.4 µM (2 of 3 replicates; controls 2 of 9).
For T28D+G33L+G99Y, the assay gave no signal (0 of 3 replicates; controls 0 of 9).
For L29G+G33R+A101E, the assay gave 360 µM (1 of 3 replicates; controls 1 of 9).
For G26T+G33M+G103P, the assay gave no signal (0 of 3 replicates; controls 2 of 9).
For F27C+G33R+A101R, the assay gave 1.2 µM (1 of 3 replicates; controls 3 of 9).
For S31A+G33Q, the assay gave no signal (0 of 3 replicates; controls 3 of 9).
For G33L+I34T+D106T, the assay gave no signal (0 of 3 replicates; controls 0 of 9).
For N30V+G33K+A102W, the assay gave 29 µM (3 of 3 replicates; controls 4 of 9).
For G33K+T58R, the assay gave no signal (0 of 3 replicates; controls 0 of 9).

The opening 2 entries, copied out:

| changes | Kd (apparent) | detected | control signals |
|---|---|---|---|
| G33A+R56T | 65 µM | 1/3 | 4/9 |
| G26H+G33I+G55C | 3.2 mM | 1/3 | 5/9 |

Empty control strains, which show no peptide, gave a signal in 15% of pairings with library AAYL49; the median was 11 µM and 95% of these signals were weaker than 680 nM. No background was subtracted. For each scFv, signals with the empty controls are counted beside the result.

From the AlphaSeq antibody data of Engelhart et al. 2022 (doi:10.1038/s41597-022-01779-4), copy in the FLAb collection.